Membrane permeability of cyclic peptides

PAMPA measures passive passage through an artificial lipid membrane. Values are log10 P with P in cm/s, so -5 is more permeable than -7.

| PAMPA (log10 cm/s) | compound |
|---|---|
| -7.13 | CC(=O)N1CCC[C@H]1C(=O)N[C@@H]1C(=O)N(C)[C@H](CC(C)C)C(=O)N[C@H](CC(C)C)C(=O)N[C@H](CC(C)C)C(=O)N(C)[C@H](CC(C)C)C(=O)N(C)[C@H](C)C(=O)N[C@@H](CC(C)C)C(=O)N2CCC[C@@H]2C(=O)O[C@@H]1C |
| -6.44 | CC(=O)N1CCC[C@H]1C(=O)N(C)[C@H](CC(C)C)C(=O)N[C@@H]1C(=O)N[C@H](CC(C)C)C(=O)N[C@H](CC(C)C)C(=O)N(C)[C@H](CC(C)C)C(=O)N(C)[C@H](C)C(=O)N[C@H](CC(C)C)C(=O)N2CCC[C@H]2C(=O)O[C@@H]1C |
| -6.25 | CC(=O)N1CCC[C@H]1C(=O)N(C)[C@@H](CC(C)C)C(=O)N[C@@H]1C(=O)N[C@H](CC(C)C)C(=O)N(C)[C@@H](CC(C)C)C(=O)N(C)[C@H](CC(C)C)C(=O)N[C@@H](C)C(=O)N[C@H](CC(C)C)C(=O)N2CCC[C@@H]2C(=O)O[C@@H]1C |
| -6.18 | CC(=O)N1CCC[C@H]1C(=O)N(C)[C@@H](CC(C)C)C(=O)N[C@@H]1C(=O)N[C@@H](CC(C)C)C(=O)N(C)[C@@H](CC(C)C)C(=O)N(C)[C@@H](CC(C)C)C(=O)N(C)[C@@H](C)C(=O)N[C@@H](CC(C)C)C(=O)N2CCC[C@H]2C(=O)O[C@@H]1C |
| -5.47 | CC(=O)N1CCC[C@H]1C(=O)N(C)[C@@H](CC(C)C)C(=O)N[C@@H]1C(=O)N[C@H](CC(C)C)C(=O)N[C@@H](CC(C)C)C(=O)N[C@H](CC(C)C)C(=O)N(C)[C@@H](C)C(=O)N[C@@H](CC(C)C)C(=O)N2CCC[C@H]2C(=O)O[C@@H]1C |
| -6.66 | CC(=O)N1CCC[C@@H]1C(=O)N(C)[C@H](CC(C)C)C(=O)N[C@@H]1C(=O)N[C@@H](CC(C)C)C(=O)N(C)[C@H](CC(C)C)C(=O)N(C)[C@H](CC(C)C)C(=O)N[C@@H](C)C(=O)N[C@@H](CC(C)C)C(=O)N2CCC[C@H]2C(=O)O[C@@H]1C |
| -5.31 | CC(=O)N1CCC[C@H]1C(=O)N(C)[C@@H](CC(C)C)C(=O)N[C@@H]1C(=O)N(C)[C@@H](CC(C)C)C(=O)N[C@@H](CC(C)C)C(=O)N(C)[C@@H](CC(C)C)C(=O)N(C)[C@H](C)C(=O)N[C@@H](CC(C)C)C(=O)N2CCC[C@H]2C(=O)O[C@@H]1C |
| -6.78 | CC(=O)N1CCC[C@@H]1C(=O)N(C)[C@@H](CC(C)C)C(=O)N[C@@H]1C(=O)N(C)[C@@H](CC(C)C)C(=O)N[C@H](CC(C)C)C(=O)N[C@@H](CC(C)C)C(=O)N[C@@H](C)C(=O)N[C@@H](CC(C)C)C(=O)N2CCC[C@H]2C(=O)O[C@@H]1C |
| -6.59 | CC(=O)N1CCC[C@H]1C(=O)N(C)[C@@H](CC(C)C)C(=O)N[C@@H]1C(=O)N[C@@H](CC(C)C)C(=O)N[C@@H](CC(C)C)C(=O)N[C@@H](CC(C)C)C(=O)N[C@@H](C)C(=O)N[C@H](CC(C)C)C(=O)N2CCC[C@H]2C(=O)O[C@@H]1C |
| -6.55 | CC(=O)N1CCC[C@@H]1C(=O)N(C)[C@H](CC(C)C)C(=O)N[C@@H]1C(=O)N(C)[C@@H](CC(C)C)C(=O)N[C@H](CC(C)C)C(=O)N(C)[C@H](CC(C)C)C(=O)N[C@@H](C)C(=O)N[C@@H](CC(C)C)C(=O)N2CCC[C@@H]2C(=O)O[C@@H]1C |
| -6.13 | CC(=O)N1CCC[C@H]1C(=O)N(C)[C@@H](CC(C)C)C(=O)N[C@@H]1C(=O)N[C@@H](CC(C)C)C(=O)N(C)[C@H](CC(C)C)C(=O)N(C)[C@H](CC(C)C)C(=O)N(C)[C@H](C)C(=O)N[C@H](CC(C)C)C(=O)N2CCC[C@@H]2C(=O)O[C@@H]1C |
| -6.05 | CC(=O)N1CCC[C@@H]1C(=O)N(C)[C@@H](CC(C)C)C(=O)N[C@@H]1C(=O)N(C)[C@@H](CC(C)C)C(=O)N[C@H](CC(C)C)C(=O)N(C)[C@@H](CC(C)C)C(=O)N(C)[C@H](C)C(=O)N[C@H](CC(C)C)C(=O)N2CCC[C@H]2C(=O)O[C@@H]1C |
| -7.24 | CC(=O)N1CCC[C@@H]1C(=O)N(C)[C@H](CC(C)C)C(=O)N[C@@H]1C(=O)N[C@H](CC(C)C)C(=O)N[C@H](CC(C)C)C(=O)N[C@@H](CC(C)C)C(=O)N(C)[C@@H](C)C(=O)N[C@@H](CC(C)C)C(=O)N2CCC[C@H]2C(=O)O[C@@H]1C |
| -6.41 | CC(=O)N1CCC[C@H]1C(=O)N(C)[C@H](CC(C)C)C(=O)N[C@@H]1C(=O)N[C@@H](CC(C)C)C(=O)N[C@H](CC(C)C)C(=O)N[C@H](CC(C)C)C(=O)N(C)[C@H](C)C(=O)N[C@H](CC(C)C)C(=O)N2CCC[C@H]2C(=O)O[C@@H]1C |
| -6.56 | CC(=O)N1CCC[C@H]1C(=O)N(C)[C@@H](CC(C)C)C(=O)N[C@@H]1C(=O)N[C@@H](CC(C)C)C(=O)N(C)[C@@H](CC(C)C)C(=O)N(C)[C@H](CC(C)C)C(=O)N[C@@H](C)C(=O)N[C@@H](CC(C)C)C(=O)N2CCC[C@H]2C(=O)O[C@@H]1C |
| -6.50 | CC(=O)N1CCC[C@H]1C(=O)N(C)[C@H](CC(C)C)C(=O)N[C@@H]1C(=O)N(C)[C@H](CC(C)C)C(=O)N[C@H](CC(C)C)C(=O)N[C@@H](CC(C)C)C(=O)N[C@@H](C)C(=O)N[C@@H](CC(C)C)C(=O)N2CCC[C@H]2C(=O)O[C@@H]1C |
| -5.41 | CC(=O)N1CCC[C@@H]1C(=O)N(C)[C@@H](CC(C)C)C(=O)N[C@@H]1C(=O)N(C)[C@@H](CC(C)C)C(=O)N(C)[C@@H](CC(C)C)C(=O)N[C@@H](CC(C)C)C(=O)N(C)[C@H](C)C(=O)N[C@@H](CC(C)C)C(=O)N2CCC[C@@H]2C(=O)O[C@@H]1C |

A selection of 2 entries from above:

| compound | PAMPA (log10 cm/s) |
|---|---|
| CC(=O)N1CCC[C@H]1C(=O)N(C)[C@@H](CC(C)C)C(=O)N[C@@H]1C(=O)N[C@@H](CC(C)C)C(=O)N(C)[C@@H](CC(C)C)C(=O)N(C)[C@@H](CC(C)C)C(=O)N(C)[C@@H](C)C(=O)N[C@@H](CC(C)C)C(=O)N2CCC[C@H]2C(=O)O[C@@H]1C | -6.18 |
| CC(=O)N1CCC[C@H]1C(=O)N(C)[C@@H](CC(C)C)C(=O)N[C@@H]1C(=O)N[C@@H](CC(C)C)C(=O)N(C)[C@@H](CC(C)C)C(=O)N(C)[C@H](CC(C)C)C(=O)N[C@@H](C)C(=O)N[C@@H](CC(C)C)C(=O)N2CCC[C@H]2C(=O)O[C@@H]1C | -6.56 |

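Lipid, pH, incubation time, direction and concentration are not recorded in the data file. Other peptides of the study may be missing here. Entries at the database's floor value (log10 P of -10) are not listed.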

Data: CycPeptMPDB; original report Kelly et al. 2021, doi:10.1021/jacs.0c06115.